## Ab-14 heavy chain CDR variants: yeast mating affinities

Source: Li et al. 2023 (doi:10.1038/s41467-023-39022-2), MIT Lincoln Laboratory and A-Alpha Bio; data file from the FLAb repository.

The target is the same throughout: PDVDLGDISGINAS, from the HR2 region of SARS-CoV-2 spike.

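These sequences belong to a second round, designed from the earlier measurements on random variants of the parent. Several design methods are mixed in this list. Affinity was read by AlphaSeq, a pooled yeast mating assay with surface-displayed partners. After mating in shaken culture at 30 °C for 16 h, diploids were selected and their barcode pairs sequenced. A regression on co-assayed BCL2-family reference pairs converts the normalised counts of each replicate to an apparent Kd. Each pool was mated in six replicate cultures.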

Parent: Ab-14, a human scFv built as VH, a (GGGGS)3 linker, VL. Only the CDRs of the heavy chain vary.
VH: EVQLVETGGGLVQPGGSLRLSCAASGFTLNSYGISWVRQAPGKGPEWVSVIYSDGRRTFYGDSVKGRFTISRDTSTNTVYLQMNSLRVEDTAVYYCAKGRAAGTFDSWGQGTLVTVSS
VL: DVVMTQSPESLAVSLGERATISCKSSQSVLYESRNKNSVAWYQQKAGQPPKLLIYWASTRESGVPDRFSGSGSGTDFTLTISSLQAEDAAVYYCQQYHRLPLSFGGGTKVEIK

Each variant is given by its three heavy chain CDRs, as the data file delimits them; those of the parent are GFTLNSYGIS, VIYSDGRRTFYGDSVK, GRAAGTFDS.
Variants here have more than six changes.
The read-out is the apparent dissociation constant on a log10 scale (nM): the lower, the stronger.
The mean shown is taken over the replicates in which the pair was detected.
Where no diploid with the target was found in that replicate, the entry reads "nd": below detection, most likely a poor binder, though not proof of it.
A sequence measured in both rounds can read differently, since the two assays cover different ranges.

The variant GFDLNEYGIS / VIYADGRRTFYSDSVK / GKIAGTFDQ showed -0.63, -0.80, -0.97, -0.67, -1.09, -0.68 (mean -0.81; controls 0 of 18).
The variant GFTLNEAIIS / VIYWDKRQTFYGEIVK / RRAAVTFDQ showed nd, nd, nd, nd, nd, nd (controls 0 of 18).
The variant GFDLNEYGIS / VIYADGRRTFYADSVK / GHVAGTFVM showed nd, nd, 0.59, 0.58, 0.16, nd (mean 0.44; controls 0 of 18).
The variant GFELNEFGIS / VIYADGMRQAYRDDVK / GDISGDFML showed 0.32, 0.59, nd, 0.01, 0.94, 0.62 (mean 0.49; controls 1 of 18).
The variant GRTIDSYGIS / VIYSTGRRTFYGDSVK / GRKAGTALS showed nd, nd, nd, nd, nd, 0.16 (controls 0 of 18).
The variant GFDLDEYGIS / VIYADGRRTAYTDSVK / GTNAGTFDV showed 0.77, -1.38, -1.04, -1.55, nd, -0.53 (mean -0.75; controls 0 of 18).
The variant GFDLNEYGIS / VIYADGRRTFYSDKVK / GNEGGTFDI showed -0.57, -0.01, -0.45, -0.20, -0.39, 0.87 (mean -0.12; controls 0 of 18).
The variant GFDLNEYGIS / VIYADGQRTAYADDVK / GNVAGTFDQ showed -0.33, -0.88, -0.74, -0.95, -0.75, -0.50 (mean -0.69; controls 1 of 18).
The variant GFNLDEYGVS / VIYADGVRTAYVSKVK / GQLGWNLLM showed nd, nd, nd, nd, nd, nd (controls 0 of 18).
The variant GEDLDEYGVS / VIYADGRKQSYSNAVK / GAIAGNFDM showed nd, nd, nd, nd, nd, nd (controls 0 of 18).
The variant GFDLNEYGIS / VIYADGSRTAYADSVK / GNTAGTFDM showed -0.37, 0.25, -0.38, -0.50, -0.04, 0.11 (mean -0.16; controls 0 of 18).
The variant GNSLQEYGIS / VIYADGMRNQYANTVK / GMEAGVFVY showed nd, nd, nd, nd, nd, nd (controls 0 of 18).
The variant GFDLNEYGIS / VIYADGRRTFYADSVK / GNTAGTFLN showed -0.56, -0.69, -0.71, -0.90, -0.80, -0.53 (mean -0.70; controls 2 of 18).
The variant GKSLEEYGIS / VIYADGQRNAYAETVK / GTNGGVFSY showed 1.47, 2.66, 1.16, 0.91, 1.14, 0.91 (mean 1.38; controls 0 of 18).
The variant GFDLEEYGIS / VIYADGSRTAYADSVK / GNVAGTFDV showed -0.33, -0.27, -0.11, -0.38, -0.53, -0.22 (mean -0.31; controls 0 of 18).
The variant GFDLNEYGIS / VIYADGMRTAYADDVK / GENAGTFDQ showed -0.14, -0.05, -0.49, -0.25, -0.22, -0.30 (mean -0.24; controls 1 of 18).
The variant GFNLEDYGIS / VIYADGMRTFYADSVK / GKVAGTFDV showed -0.42, 0.02, -0.26, 0.13, -0.11, -0.10 (mean -0.13; controls 0 of 18).
The variant GFDLNEYGIS / VIYADGKRTAYADSVK / GTNAGTFDI showed -0.40, 0.27, -0.82, -0.27, 0.28, -0.36 (mean -0.22; controls 0 of 18).
The variant GMDLNEYGIS / VIYADGRRTAYINQVK / GKQSMIVSS showed nd, nd, nd, nd, nd, nd (controls 0 of 18).
The variant GFGLDEYGIS / VIYADGQRYAYKNSVK / GGDGINGLY showed nd, nd, nd, nd, nd, nd (controls 0 of 18).
The variant GFDLDEYGIS / VIYADGMRTAYVDSVK / GETAGTFDV showed 0.18, 0.00, 0.45, 0.50, 0.07, 0.46 (mean 0.28; controls 0 of 18).
The variant GFDLDEYGIS / VIYADGQRTFYADSVK / GNVAGTFDQ showed -0.39, -0.46, -0.70, -0.53, -0.45, -0.64 (mean -0.53; controls 0 of 18).
The variant GFDLDEYGIS / VIYADGRRTFYADSVK / GNLAGTFDS showed -0.30, -0.06, -0.32, -0.05, -0.42, -0.29 (mean -0.24; controls 0 of 18).
The variant GFDLNEYGIS / VIYADGRRTFYADSVK / GNNAGTFDE showed -0.23, -0.36, -0.58, -0.19, -0.51, -0.45 (mean -0.39; controls 0 of 18).
The variant GPSLDEYGIS / VIYADGVRQFYADDVK / GGIAGQVNY showed nd, nd, nd, nd, nd, nd (controls 0 of 18).
The variant GFDLNEYGIS / VIYADGKRTFYADSVK / GQAAGTFTL showed 0.60, 0.44, 0.35, 0.25, 0.67, 0.36 (mean 0.44; controls 0 of 18).
The variant GFGLDEYGIS / VIYADGKRAAYKNSVK / GGVGVGGLH showed nd, nd, nd, nd, nd, nd (controls 0 of 18).
The variant GFDLNEYGIS / VIYADGQRTFYADSVK / GEVAGTFDT showed 0.35, 0.16, -0.15, -0.34, -0.21, -0.12 (mean -0.05; controls 1 of 18).
The variant GADLNEYGIS / VIYADGSRTEYADTVK / GKHGGMFDS showed nd, nd, nd, nd, nd, 3.44 (controls 0 of 18).
The variant GFDLNEYGIS / VIYADGMRTAYSDSVK / GENAGTFDL showed -0.07, -0.35, -0.08, -0.50, -0.19, 0.10 (mean -0.18; controls 1 of 18).
The variant GFDIDEYGIS / VIYADGQRTFYADSVK / GTNAGTFDS showed -0.30, -0.10, 0.19, 0.23, 0.01, 0.21 (mean 0.04; controls 0 of 18).
The variant GFDLNEYGIS / VIYADGLRTFYTDSVK / GETAGTFDS showed -0.47, -0.16, -0.59, -0.44, -0.50, -0.31 (mean -0.41; controls 0 of 18).
The variant GFGLDEYGIS / VIYADGMRAWYATNVK / GYQAGVFST showed nd, 2.68, nd, 2.51, 2.70, nd (mean 2.63; controls 1 of 18).
The variant GFDLNEYGIS / VIYADGVRTFYSDSVK / GETAGTFDV showed -0.46, -1.00, -1.13, -1.19, -0.88, -0.78 (mean -0.91; controls 0 of 18).
The variant GFDLNEYGIS / VIYADGRRTAYSDSVK / GGNAGFFDE showed nd, nd, nd, nd, nd, nd (controls 0 of 18).
The variant GFDLDEYGIS / VIYADGKRTFYIDSVK / GETAGTFDV showed 0.01, -0.02, 0.24, -0.24, 0.11, 0.11 (mean 0.03; controls 0 of 18).
The variant GQDLNEYGIS / VIYADGKRTAYEDSVK / GKSKGLIFV showed nd, nd, nd, nd, nd, nd (controls 0 of 18).
The variant GFDLNEYGVS / VIYADGFRTSYTDSVK / GNIFDLIMA showed nd, nd, nd, nd, nd, nd (controls 1 of 18).
The variant GFDLENYGIS / VIYADGRRTFYADKVK / GENAGTFDI showed -0.29, 0.27, 0.64, 0.23, -0.46, 0.09 (mean 0.08; controls 1 of 18).
The variant GFDLNEYGIS / VIYADGSRTAYADSVK / GTNAGTFDV showed 1.82, 1.40, 1.79, 1.90, 0.82, 1.22 (mean 1.49; controls 0 of 18).
The variant GFGINEYGIS / VIYADGMRRSYADSVK / GAESGYMVV showed nd, nd, nd, nd, nd, nd (controls 0 of 18).
The variant GFDLDEYGIS / VIYADGMRTAYADDVK / GEVAGTFDQ showed -0.10, -0.41, -0.34, -0.53, -0.56, -0.53 (mean -0.41; controls 1 of 18).
The variant GFDLNEYGIS / VIYADGRRTAYADSVK / GQTAGTFDT showed -0.09, -0.18, -0.54, -0.25, -0.25, -0.28 (mean -0.26; controls 0 of 18).
The variant GFDLVEYGIS / VIYADGIRTVVSNDVK / GNVAGTIDV showed 0.57, 0.17, 0.16, 0.32, 0.07, 0.27 (mean 0.26; controls 0 of 18).
The variant GFDLNEYGIS / VIYADGRRTAYADDVK / GNNAGTFDV showed -0.28, -0.48, -0.63, -0.81, -0.35, -0.40 (mean -0.49; controls 0 of 18).
The variant GYSLDEYGIS / VIYADGVRQFYADDVK / GGIAGQVNY showed nd, nd, nd, nd, nd, nd (controls 0 of 18).
The variant GKDIESYGVS / VIYADGKRTAYANNFK / GSNAGSFVM showed nd, nd, nd, nd, nd, 2.92 (controls 0 of 18).
The variant GFDLEDYGIS / VIYADGRRTAYIDSVK / GETAGTFDS showed -0.05, -0.81, -0.52, -1.02, -0.54, -0.43 (mean -0.56; controls 0 of 18).

The 3 strongest on average among those seen in every replicate, once more:

CDR-H1	CDR-H2	CDR-H3	log10 Kd, replicates	log10 Kd (nM), mean	empty controls
GFDLNEYGIS	VIYADGVRTFYSDSVK	GETAGTFDV	-0.46, -1.00, -1.13, -1.19, -0.88, -0.78	-0.91	0 of 18
GFDLNEYGIS	VIYADGRRTFYSDSVK	GKIAGTFDQ	-0.63, -0.80, -0.97, -0.67, -1.09, -0.68	-0.81	0 of 18
GFDLNEYGIS	VIYADGRRTFYADSVK	GNTAGTFLN	-0.56, -0.69, -0.71, -0.90, -0.80, -0.53	-0.70	2 of 18

The parent sequence was in this pool as ten entries: three were never detected, three once, and four in most replicates, with averages from 0.34 to 2.37.
The authors' rule: three or more of the six replicates give a measured affinity, fewer mean a poor binder.
Nonspecific signal, from three strains lacking the peptide, appeared in 1% of pairings of all heavy chain designs, centred on 2.08 (5% of these signals below 0.84); values are not corrected for it. For each scFv, signals with the empty controls are counted beside the result.